The entries are a selection whose mix differs from that of the whole data set. Some tests of the compounds listed are not included; inactive here does not mean inactive elsewhere. Activity calls are given as the source filed them.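 How the source made its calls: active means inhibition above the screen mean inhibition plus 3 SD, computed separately per campaign (cut at about 18% in these data); inactive means the rest.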
Test system: Fam108B (ABHD17B) serine hydrolase [Mus musculus]
Assay: inhibition of Fam108B (ABHD17B) hydrolase – biochemical, fluorescence polarization, counter-screen for RBBP9 inhibitor project, primary screen (AID 1947);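 further: inhibitors lower polarization as less probe binds the enzyme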
Details: recombinant Fam108B, FP-Rh probe fluorescence polarization; at 9.51 µM; active compounds read high

SMILES | inhibition
O=C(NCC1(N2CCCCC2)CCCCC1)c1cc(F)c(F)cc1Cl | inactive: 1.97%
C=CCN1CCN(CCOC(=O)C(O)(c2ccccc2)c2ccccc2)CC1 | inactive: 0.67%
COc1ccc(C(=O)NCC2(N(C)C)CCCCC2)cc1 | inactive: -0.57%
O=C(NCC1(N2CCCCC2)CCCCC1)c1cccc(Br)c1 | inactive: -2.61%
CCN1CCCC(OC(=O)C2(O)c3ccccc3C=Cc3ccccc32)C1 (centres undefined) | inactive: 0.92%
Cc1cc(C(=O)NCC2(N3CCCCC3)CCCCC2)ccc1[N+](=O)[O-] | inactive: 5.13%
CN(C)c1ccc(C(=O)NCC2(N(C)C)CCCCC2)cc1 | inactive: 2.82%
CN(C)C1CCCC1OC(=O)C(O)(c1ccccc1)c1ccccc1 (centres undefined) | inactive: 0.27%
Cc1ccccc1C(=O)NCC1(N2CCCCC2)CCCCC1 | inactive: 1.27%
COc1cc(SC)ccc1C(=O)NCC1(N(C)C)CCCCC1 | inactive: 2.09%
CCN(CC)CC(C)C(C)OC(=O)C(O)(c1ccccc1)c1ccccc1 (centres undefined) | inactive: -1.52%
CC(C)N1C(=O)CC2(CCN(CCOC(=O)C(O)(c3ccccc3)c3ccccc3)CC2)C1=O | inactive: 4.24%
Cc1ccc(C(=O)NCC2(N3CCCCC3)CCCCC2)cc1 | inactive: -1.33%
O=C(NCC1(N2CCCCC2)CCCCC1)c1cc([N+](=O)[O-])ccc1Cl | inactive: 2.41%
CN1[C@@H]2CC[C@H]1CC(OC(=O)C(O)(c1ccccc1)c1ccccc1)C2 (some centres undefined) | inactive: 3.11%
COc1ccc(Br)c(C(=O)NCC2(N3CCCCC3)CCCCC2)c1 | inactive: 5%
CC(C)Oc1ccc(C(=O)NCC2(N(C)C)CCCCC2)cc1 | inactive: -0.78%
CN(C)c1cccc(C(=O)NCC2(N(C)C)CCCCC2)c1 | inactive: 8.16%
O=C(OC1CN2CCC1CC2)C(CO)(c1ccccc1)c1ccccc1 (centres undefined) | inactive: 1.57%
COc1ccc(Cl)cc1C(=O)NCC1(N(C)C)CCCCC1 | inactive: 4.56%
COc1cccc(C(=O)NCC2(N3CCCCC3)CCCCC2)c1 | inactive: 2.43%
O=C(NCC1(N2CCCCC2)CCCCC1)c1cccc(Cl)c1 | inactive: -3.73%
CN(C)C1(CNC(=O)c2ccc(Br)cc2)CCCCC1 | inactive: -2.83%
COc1cc(C(=O)NCC2(N(C)C)CCCCC2)c([N+](=O)[O-])cc1OC | inactive: -2.38%

— PubChem BioAssay AID1947 (The Scripps Research Institute Molecular Screening Center, 2009)
